According to US20110021530A1, “PYRIDAZINE DERIVATIVES AND THEIR USE AS THERAPEUTIC AGENTS IN THE TREATMENT OF SKIN DISORDERS” (XENON PHARMACEUTICALS INC., priority 2008, published 2011):

Target: T1, SCD (Mus musculus, UniProt P13516)
T1 sequence (P13516 1-355): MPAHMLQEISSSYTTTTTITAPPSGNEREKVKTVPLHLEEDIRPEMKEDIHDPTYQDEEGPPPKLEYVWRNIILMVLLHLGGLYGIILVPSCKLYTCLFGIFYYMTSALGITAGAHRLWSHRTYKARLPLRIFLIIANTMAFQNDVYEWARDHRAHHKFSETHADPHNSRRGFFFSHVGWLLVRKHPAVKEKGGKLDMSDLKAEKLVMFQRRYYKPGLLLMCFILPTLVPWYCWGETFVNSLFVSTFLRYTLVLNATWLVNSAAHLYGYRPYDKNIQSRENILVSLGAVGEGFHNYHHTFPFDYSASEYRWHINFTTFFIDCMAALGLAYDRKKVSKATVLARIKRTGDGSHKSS
Assay: Mouse SCD IC50 determination for compounds active in the HTS assay
Type: biochemical

Question: Which IC50 does the source give for `O=C(NCCc1ccccc1)c1ccc(N2CCN(C(=O)c3ccccc3C(F)(F)F)CC2)nn1` [6-[4-(2-Trifluoromethylbenzoyl)piperazin-1-yl]pyridazine-3-carboxylic acid phenethylamide] here?
Answer: The IC50 was 20 nM.
